# The NIST ThermoML archive (doi:10.1016/j.jct.2004.05.009)
# ± gives the expanded uncertainty stated by the source.
# Settings: 182.33 K; Liquid
smiles,measurement,value
CCl [chloromethane],vapor or sublimation pressure,1.67 ± 0.11 kPa
